The experiment addresses T1, Dihydrofolate reductase (Enterococcus faecium) (UniProt P00380).
T1 sequence (whole entry): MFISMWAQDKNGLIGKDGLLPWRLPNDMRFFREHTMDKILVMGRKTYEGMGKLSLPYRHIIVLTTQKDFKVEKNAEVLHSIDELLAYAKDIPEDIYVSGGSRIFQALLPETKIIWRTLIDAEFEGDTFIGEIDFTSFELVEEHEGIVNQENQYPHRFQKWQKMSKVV

Among the data in ChEMBL document CHEMBL3272349, “Quantitative structure-activity relationships of antimalarial and dihydrofolate reductase inhibition by quinazolines and 5-substituted benzyl-2,4-diaminopyrimidines” (J Med Chem, 1977) are log(1/I50) values, retold here.

Regarding `Nc1nc(N)c2cc(Sc3ccc4ccccc4c3)ccc2n1`, the log(1/I50) was found to be 8.15.
